In the library only some 1.3% were active in any assay of this set; here they are far more common.
miR-21 reporter – raises the signal of a miR-21 reporter; 340,000 tested, under 10 active; HeLa miR-21 FLuc reporter, luciferase, 48 h; Potency, µM (highest dose often 38.3 µM), without a hit: top-dose reporter change, positive = more light; active = well fitted rising curve with a large enough effect; inconclusive = small, poorly fitted or top-dose-only effect; inactive = no such curve, though single readings can be large or run the other way;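 also: % of control where 0% means no effect; miR-21 action dims this reporter so a rising signal means less miR-21 action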
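HeLa cells stably expressing CMV-driven firefly luciferase with a downstream miR-21 binding sequence, endogenously expressing miR-21, were treated with titrations (up to about 40uM final) for 48 hours at 37 degree Celsius. Luciferase luminescence was read after lysis.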
PTHR1 ag – agonists of human PTHR1 parathyroid hormone receptor; HEK293 GP2 PTHR1 cells, GloSensor cAMP luminescence, 1 h; Potency, µM (doses to about 115 µM), without a hit: at the top dose activation, usual class: activators; Q03431; hit rate 0.075% among 410,000; AID 743266; note: potency is the fitted concentration of half-maximal effect; nearly all actives have a fitted effect of over 55% in size
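HEK-293-derived GP2 cells expressing PTHR1 and a GloSensor cAMP reporter, 3,000/well, plated overnight, given luciferin plus IBMX (each 0.5 mM as added) for 1 h at 37 °C, then compound for 1 h at 37 °C. Luminescence was read after 15 min at room temperature.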
Giardia kill – Giardia lamblia killing. Giardia lamblia trophozoite viability. activity change, % at 7.66 µM, hits read low. hit rate 0.15% among 340,000; in the data active = activity change below about -80%; inconclusive = between about -30% and that limit;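 note: parasites exposed to compound for two days anaerobically before the ATP read; % is set by controls: 0 for no effect and ±100 for the full control effect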
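Trophozoites 100 cells/well + cpd; 48 hrs, 37 deg C, anaerobic. ATPLite 1-Step added, 15-30 min RT, luminescence read (ATP-based viability).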
ALOX12 inh – inhibitors of human 12S-lipoxygenase ALOX12; P18054; purified 12hLO, xylenol orange hydroperoxide absorbance; Potency, µM (series often up to 108 µM), for inactives: top-dose activity change, negative = inhibition, hits mostly inhibitors; hit rate 1.1% among 580,000; AID 1671190; note: potency is the fitted concentration of half-maximal effect; % is set by controls: 0 for no effect and ±100 for the full control effect
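Hydroperoxide product was detected by ferrous iron/xylenol orange as the 573 to 405 nm absorbance ratio. Arachidonic acid at 40 uM (final) was turned over for 30 min at room temperature by 150 nM human 12hLO, pH 7.0 Hepes buffer, after 15 min compound preincubation.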
PINK1 modulator – PINK1 expression modulation. PINK1 immunofluorescence, high-content cytometry, 24 h. Potency, µM (series often up to 76.6 µM), without a hit: at the highest dose activation (PINK1 increase), hits mostly activators. hit rate 0.2% among 410,000; active = well fitted activation curve with a large enough effect; inconclusive = small, poorly fitted or top-dose-only effect; cell line not stated here; note: potency is the fitted concentration of half-maximal effect; % of control where 0% means no effect; nearly all actives have a fitted effect of over 65% in size
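Measures PINK1 amount and localization on or inside mitochondria by immunofluorescence. Stable cells get compounds at 5 concentrations for 24 hours before fixation and staining; CCCP controls included.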
ERG Ets-DNA blk – blocks human ERG Ets domain binding to DNA; P11308; fluorescence polarization, His-ERG Ets domain / labelled DNA; Potency, µM (highest dose often 76.9 µM), inactives show at the highest dose FP activity, negative = inhibition, actives largely listed as inhibitors; hit rate 0.028% among 370,000; active = well fitted inhibition curve with a large enough effect in the polarisation, with a control signal flat; inconclusive = small, poorly fitted or top-dose-only effect, or effect the other way, or a change in a side signal; inactive = no such curve, though single readings can be large or run the other way; the % refers to the polarisation;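 note: polarization taken with two DNA probes labelled with fluorescein and Texas red; potency is the fitted concentration of half-maximal effect; % of control where 0% means no effect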
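His-tagged ERG Ets domain (1 uM in the protein solution; 300mM KCl, 50mM Tris-HCl, 1mM EDTA, 1mM DTT, pH 7.5) received compound, then a probe mix of 5 nM fluorescein-DNA and 100nM Texas-615-DNA. Fluorescence polarization was read for both dyes.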
Starred values were filed as active, the others as inactive; i = inactive; ? = inconclusive; . = no result; [ ] = another dose, or the depositor's remark. Unless noted, calls come from the whole dose curve; as a rule, active = well fitted curve in the direction sought with a large enough effect; inconclusive = small, poorly fitted or top-dose-only effect, or another doubt; inactive = no such curve, though single readings can be large; an effect the other way counts as inactive or inconclusive.

| SMILES | miR-21 reporter | PTHR1 ag | Giardia kill | ALOX12 inh | PINK1 modulator | ERG Ets-DNA blk |
| --- | --- | --- | --- | --- | --- | --- |
| COc1cccc(/C=N/n2c(C3CCCCC3)n[nH]c2=S)c1O | 0.6% | -6.8% | -5.9 | 20µM* | -1.2% | 3.4% |
| COc1ccc(/C=N/n2c(C3CCCCC3)n[nH]c2=S)c(OC)c1 | -8.1% | i | 6.7 | 39.8µM* | 2.0% | -13.7% |
| S=c1[nH]nc(C2CCCCC2)n1/N=C/c1ccccc1 | -5.4% | i | 18.7 | 0.0% | 7.2% | 1.2% |
| COc1cccc(/C=N/n2c(-c3n[nH]c4c3CCC4)n[nH]c2=S)c1O | -3.8% | i | 1.5 | 39.8µM* | -3.4% | 6.9% |
| S=c1[nH]nc(C2CCCCC2)n1/N=C/c1ccccn1 | -1.2% | -1.5% | 13.0 | 17.8µM* | 0.0% | 1.1% |
| COc1cccc(/C=N/n2c(C3CCCCC3)n[nH]c2=S)c1OC | -6.7% | -9.1% | -26.1 | 14.8% | 5.6% | 6.2% |
| O=C(CCSCCc1ccccn1)Nc1cc(F)ccc1F | 0.8% | i | -22.7 | 2.2% | -1.5% | -5.2% |
| CCOc1ccc(Br)cc1C1C(C#N)=C(N)Oc2cc3c(cc21)OCO3 (stereo not given) | . | . | . | 7.08µM* | . | . |
| CCOc1cc(C2C(C#N)=C(N)Oc3cc4c(cc32)OCO4)cc(Br)c1OC (stereo not given) | . | . | . | 43.6% | . | . |
| COc1ccc(Cl)cc1-c1n[nH]c(=S)n1C | -1.5% | -8.1% | -4.2 | ? | 0.9% | 7.8% |

3 of the entries above in order of the ERG Ets-DNA blk value, rising.
structure | miR-21 reporter | PTHR1 ag | ALOX12 inh | PINK1 modulator | ERG Ets-DNA blk
S=c1[nH]nc(C2CCCCC2)n1/N=C/c1ccccc1 | -5.4% | i | 0.0% | 7.2% | 1.2%
COc1cccc(/C=N/n2c(C3CCCCC3)n[nH]c2=S)c1OC | -6.7% | -9.1% | 14.8% | 5.6% | 6.2%
COc1ccc(Cl)cc1-c1n[nH]c(=S)n1C | -1.5% | -8.1% | ? | 0.9% | 7.8%

Further entries
| SMILES | miR-21 reporter | PTHR1 ag | Giardia kill | ALOX12 inh | PINK1 modulator | ERG Ets-DNA blk |
| --- | --- | --- | --- | --- | --- | --- |
| Cc1ccc(COc2ccsc2-c2n[nH]c(=S)n2C)cc1 | 1.6% | i | 1.2 | 14.1µM* | . | -10.7% |
| Cn1c(-c2sccc2OCc2ccccc2)n[nH]c1=S | 1.0% | i | 8.6 | ? | 0.6% | -2.3% |
| Cn1c(-c2sccc2OCc2ccc(Cl)cc2Cl)n[nH]c1=S | -0.1% | -27.3% | 6.2 | 28.2µM* | 1.8% | 20.8% |
| O=C(/C=C/c1ccccn1)c1cc(Br)ccc1O | -10.1% | -22.5% | 7.4 | ? | -1.7% | 17.0% |
| Cc1ccc(S(=O)(=O)N2CCC(=O)N(CCOC(=O)Nc3cc(C)cc(C)c3)CC2)cc1 | -16.7% | -8.7% | 3.1 | -12.7% | -0.1% | -7.5% |
| O=c1[nH]c(-c2ccc(O)cc2)nc2scc(-c3cccs3)c12 | -48.9% | i | -23.1 | -7.3% | 0.7% | -2.5% |
| O=C(O)c1ccc(-c2nc3scc(-c4ccccc4)c3c(=O)[nH]2)cc1 | 0.6% | 17.8µM* | 1.6 | 15.2% | 0.9% | 10.8% |
| CC(C)c1ccc(NC(=S)NC2CCSc3ccccc32)cc1 (stereo not given) | . | . | . | 35.5µM* | . | . |
| O=C(Nc1ccc(Br)cc1)c1cccc(S(=O)(=O)Nc2cnc3ccccc3c2)c1 | 15.0% | -52.0% | 49.5 | ? | ? | 17.0% |
| CCc1sc(C(=O)Nc2cccnc2)cc1Br | -38.2% | i | 11.7 | 25.1µM* | -1.3% | 1.5% |

Further results.
Letter code – A = miR-21 reporter; B = PTHR1 ag; C = Giardia kill; D = ALOX12 inh; E = PINK1 modulator; F = ERG Ets-DNA blk
COc1ccc(NC(=O)c2cc(Br)c(Br)s2)cn1
  A: -11.6% | B: -23.4% | C: -1.5 | D: 12.6µM* | E: 6.3% | F: -6.4%
COc1ccc(NC(=O)c2cccc(S(=O)(=O)Nc3ccc(Br)cc3)c2)cn1
  A: ? | B: -36.8% | C: -0.3 | D: ? | E: 14.1µM* | F: -6.5%
COc1ccc(-c2nnc(SCc3csc(Nc4ccc(C)cc4)n3)o2)c(OC)c1
  A: . | B: . | C: . | D: -27.0% | E: . | F: .
COc1ccccc1-c1nnc(SCc2csc(Nc3ccc(C)cc3)n2)o1
  A: . | B: . | C: . | D: 39.8µM* | E: . | F: .
CC(=O)C(C(C)=O)c1c(Cl)c(O)c(O)c2c(C(=O)c3ccccc3)coc12
  A: ? | B: -39.3%[57.5 µM] | C: -5.7 | D: ? | E: 15.8µM* | F: -6.0%
CC(C)(C)c1ccc(-c2nc(NCc3cccnc3)c3ccccc3n2)cc1
  A: -25.1% | B: -18.9% | C: -16.0 | D: -8.5% | E: -0.8% | F: 9.4%
COc1ccc(N2C(=O)S[C@@H]3CS(=O)(=O)C[C@@H]32)cc1
  A: -8.1% | B: i | C: -9.4 | D: 28.1% | E: 0.4% | F: -5.3%
COc1ccc(N2C(=O)CN(C3CCCCC3)[C@H]3CS(=O)(=O)C[C@H]32)cc1
  A: . | B: . | C: . | D: 10µM* | E: . | F: .
CC1(C)CC(=O)c2cc(-c3nc(-c4ccc(Cl)cc4)cs3)c(=O)[nH]c2C1
  A: 0.1% | B: i | C: . | D: -17.8% | E: 4.0% | F: -2.4%
COc1ccc(N2CCN(CC(=O)Nc3ccc(C)cc3)CC2)cc1
  A: 2.0% | B: i | C: -1.1 | D: -1.5% | E: -1.0% | F: 7.1%

Exported with values under each structure: entries from further up.
Screens in order – miR-21 reporter, PTHR1 ag, Giardia kill, ALOX12 inh, PINK1 modulator, ERG Ets-DNA blk
CC(C)(C)c1ccc(-c2nc(NCc3cccnc3)c3ccccc3n2)cc1
    -25.1%, -18.9%, -16.0, -8.5%, -0.8%, 9.4%
COc1ccc(N2C(=O)S[C@@H]3CS(=O)(=O)C[C@@H]32)cc1
    -8.1%, i, -9.4, 28.1%, 0.4%, -5.3%
